Assay results as given in US11891628B2, “Method for biomimetic culture of urothelial cells and uses thereof” (China Medical University, priority 2018, dated 2024).

Columns and labels:
[1] = system: xenogeneic urothelial cells; test: Cytotoxicity assay, effector lymphocytes against CFDA-SE labeled xenogeneic urothelial cells; assay type: cell-based, mice; settings: E:T 10, 4 hours; target xenogeneic urothelial cells
Procedure: (§1) FIG. 11. The stimulatory activity on reactive T cell cytokine production and cytotoxicity in MBT-2-lu-tumor bearing mice by different treatments. IFNγ level in supernatants collected after 2 days of co-culture of lymphocytes isolated from spleens of mice with 46 different treatments with xenogeneic urothelial cells or MBT-2-luc cells was measured by ELISA. The supernatants of lymphocytes culture alone were used as the baseline control. Relative stimulatory activity of xenogeneic urothelial cells (A) and MBT-2-luc (B) on IFNγ production by lymphocytes from mice of different treatment group was calculated as the following: ([IFNγ]co-cultured-[IFNγ]baseline)/([IFNγ]baseline). […] At the end of co-culture, suspension effector cells in the wells were washed out and the intensity of CFDA-SE labelled target cells was measured. […] The relative cytotoxic activity of lymphocytes was determined following the formula: (RFUexp-RFUctrl)/RFUctrl. […]
(§2) Target xenogeneic urothelial cells or MBT-2-luc cells were labeled with CFDA-SE were plated for 24 hours and then co-cultured with effector lymphocytes isolated from 14 the spleens of mice with different treatments at effector/target (E:T) ratio=10. After 4 hour incubation, effector cells were removed, the fluorescent intensity of remaining adherent CFDA-SE labeled targets cells were measured by a fluorimeter. […]

MBT-2-luc cells = test: Cytotoxicity assay, effector lymphocytes against CFDA-SE labeled MBT-2-luc cells; assay type: cell-based, mice; settings: E:T 10, 4 hours; target MBT-2-luc cells
Procedure: as §1, §2

Gemcitabine plus cisplatin [GC]
cytotoxic activity of effector lymphocytes [1]: increased | cytotoxic activity of effector lymphocytes (MBT-2-luc cells): increased
